Measured values taken from ChEMBL document CHEMBL3244020, “Trichloroacetamidines, a new class of positive inotropic agents” (J Med Chem, 1978).

Organism: Felis catus
Assay: Positive inotropic activity in cat heart papillary muscle assessed as increase in contractile force at 10 ug/mL measured for 5 to 30 mins
Format: functional
Conditions: Muscle tissue
Procedure, shortened: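 Right-ventricular cat papillary muscles in Krebs–Henseleit at 37 °C, field-stimulated at 1/s (4–10 ms, 6–10 V). Muscles equilibrated about 90 min, until force fell to 25–30% of original. Compound added and force recorded at 5, 10, 20 and 30 min, followed by ouabain 0.5 μg/mL. Positives were retested on three more preparations at ≥3 concentrations. Scored as mg increase in contractile force.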

Work on `C/N=C(\N(C)C)C(Cl)(Cl)Cl` yielded an Activity of 201 mg.
